Columns and labels:
doxorubicin treated mice = assay: Echocardiography of doxorubicin and doxorubicin+lapatinib treated mice; conditions: seven weeks after the completion of the doxorubicin treatment; FIG. 2; vs untreated controls
[1] = test system: doxorubicin+BEZ235 treated mice; assay type: in vivo; conditions: doxorubicin+BEZ235+lapatinib (25, 50 or 100 mg/kg oral daily) versus doxorubicin+BEZ235 treated mice; FIG. 5

Row | Structure (SMILES) | ejection fraction (EF %) (doxorubicin treated mice) | end-systolic volume (ESV) (doxorubicin treated mice) | survival [1]
1 | COc1cccc2c1C(=O)c1c(O)c3c(c(O)c1C2=O)C[C@@](O)(C(=O)CO)C[C@@H]3O[C@H]1C[C@H](N)[C@H](O)[C@H](C)O1 [doxorubicin] | decreased | increased | 
2 | CS(=O)(=O)CCNCc1ccc(-c2ccc3ncnc(Nc4ccc(OCc5cccc(F)c5)c(Cl)c4)c3c2)o1 [lapatinib, N-[3-chloro-4-[(3-fluorophenyl)methoxy]phenyl]-6-[5-[(2-methylsulfonylethylamino)methyl]-2-furyl]quinazolin-4-amine] |  |  | significantly improved
